Values of other authors in patent publication US20210137911A1, “NOVEL CHRONOTHERAPY BASED ON CIRCADIAN RHYTHMS” (THE TRUSTEES OF THE UNIVERSITY OF PENNSYLVANIA, priority 2014, published 2021).

Conditions: in vivo; cited from earlier work

Row | Substance | ½ Life [h]
1 | Interferon Alfa-2b, Recombinant | 2
2 | Thyrotropin Alfa | 5
